E-sel inducer: E-selectin induction on HUVECs | 260,000 tested, 0.37% active | activation, % at 7.58 µM | HUVEC E-selectin immunofluorescence imaging; normalized: neutral wells 0, TNF-alpha wells 100;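 active = mean E-selectin-positive cell signal at least 10% of the positive control, reached in at least 60% of replicates, without over 20% cell loss; inconclusive = no rule given, readout overlaps actives, possibly toxicity-flagged; inactive = the rest, including those meeting only one limit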
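Material: HUVEC primary endothelial cells; Amount: 3,000 cells per well; Dosing: single concentration; Medium: EGM-2 growth medium on 0.1% gelatin-coated wells; Read-out basis: percent E-selectin-positive cells; Signal: immunofluorescence imaging; Control set: TNF-alpha, DMSO.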
Yeast UUG start: alters start codon recognition fidelity in yeast | S. cerevisiae UUG-firefly luciferase reporter, luminescence/redox ratio | activity score, % at 18.7 µM | 350,000 compounds, 0.13% hits | AID 602363;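 active = replicate mean at a twofold rise or more, about +100% in these data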;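 note: firefly luciferase made from a UUG start codon reports start codon fidelity; reporter light over untreated wells divided by growth signal over untreated wells; some hits fall short of that in this replicate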
DENV2 CPE rescue: inhibitors of DENV2 cytopathic effect | DENV2-infected cells, cytopathic effect rescue, plate reader | CPE inhibition, % at 9.99 µM | 350,000 tested, 1.7% active | AID 651640; in the data active = CPE inhibition above about 20%, passing the limit was not always enough; inconclusive = no clear call, values can overlap the other calls; tested in BHK-21 cells;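 also: 0% = median of neutral control wells and 100% = median of positive control wells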
Cneo AK release: Cryptococcus neoformans lysis via adenylate kinase release | 360,000 tested, 0.2% active | lysis activity, % at 15 µM | C. neoformans lysis, adenylate kinase release luminescence, 4 h; normalised: neutral wells 0, clomiphene wells 100;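 active = mean lysis activity across replicates of at least 80%, whatever share of replicates individually reach that level; inactive = mean lysis activity below 80%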
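read-out = cell lysis signal | test system = log-phase Cryptococcus neoformans yeast cells | input = cells at 5 × 10^6 per mL | medium = fresh YPD growth medium | signal = luminescent adenylate kinase detection reagent | timing = 4 h at 37 °C static, read 1 h later | dosing = single dose | controls = Clomiphene as positive lysis control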
Active calls of the source: *. The list is not random: actives were taken first. Their share in the collection is about 1.8%.

Screening Cc1ccc(Nc2nc(-c3sc(N)nc3C)cs2)cc1 returned E-sel inducer 7.4, Yeast UUG start -5.3, DENV2 CPE rescue 46.6* and Cneo AK release -7.0.
CCN1CCN(C(=O)/C=C/c2ccc3c(c2)OCO3)CC1 was read as Yeast UUG start 5.3, DENV2 CPE rescue 11.3 and Cneo AK release -22.0.
`CCN1CCN(C(=O)/C=C/c2ccc(OC)c(OC)c2)CC1` gave Yeast UUG start -23.5, DENV2 CPE rescue 20.1* and Cneo AK release 1.8.
For Cc1ccc(S(=O)(=O)Nc2ccc3c(c2)C(=O)N([C@@H](C)CO)C[C@H](C)[C@H](CN(C)Cc2ccc(C(=O)O)cc2)OCCCC[C@H](C)O3)cc1 the results were Yeast UUG start 11.3, DENV2 CPE rescue -3.0 and Cneo AK release 17.4.
CNC(=O)C[C@H]1CC[C@H]2[C@H](COc3ccc(NC(=O)Nc4ccccc4)cc3C(=O)N2C)O1 was read as E-sel inducer 0.0, Yeast UUG start 10.7, DENV2 CPE rescue inconclusive and Cneo AK release 94.1*.
CNC(=O)C[C@H]1CC[C@H]2[C@@H](COc3ccc(NC(=O)Nc4ccccc4)cc3C(=O)N2C)O1 was read as E-sel inducer 0.1, Yeast UUG start 8.8, DENV2 CPE rescue -10.4 and Cneo AK release 110.2*.
For CNC(=O)C[C@H]1CC[C@H]2[C@H](COc3ccc(NC(=O)Nc4ccc(C)cc4)cc3C(=O)N2C)O1 the results were E-sel inducer 0.2, Yeast UUG start 9.2, DENV2 CPE rescue 6.4 and Cneo AK release 9.2.
Cc1cc(C)c(C(=O)N(C)C2CCCN(Cc3ccccc3F)C2)o1 (stereo not given) was read as E-sel inducer -0.8, Yeast UUG start -15.0, DENV2 CPE rescue 37.0* and Cneo AK release -0.3.
For Cc1cc(C)cc(C(=O)N(C)C2CCCN(Cc3ccccc3F)C2)c1 (stereo not given) the results were Yeast UUG start -16.4, DENV2 CPE rescue 11.6 and Cneo AK release -0.4.
Screening CCCCCCCC1c2c(c(C)c(C)oc2=O)Oc2c(C)c(C)oc(=O)c21 returned E-sel inducer -0.1, Yeast UUG start 2.9, DENV2 CPE rescue 89.5* and Cneo AK release 0.1.
Screening COc1cccc(S(=O)(=O)N[C@H]2C=C[C@H](CC(=O)NCc3ccncc3)O[C@@H]2CO)c1 returned E-sel inducer -0.1, Yeast UUG start -17.9, DENV2 CPE rescue -3.0 and Cneo AK release 4.8.
`COc1cccc(S(=O)(=O)N[C@H]2C=C[C@H](CC(=O)NCc3ccncc3)O[C@H]2CO)c1` gave E-sel inducer 0.1 and DENV2 CPE rescue 28.3*.
For COc1cccc(S(=O)(=O)N[C@@H]2C=C[C@H](CC(=O)NCc3ccc(F)cc3)O[C@@H]2CO)c1 the results were E-sel inducer 0.2, Yeast UUG start 14.4, DENV2 CPE rescue 33.3* and Cneo AK release 4.5.
For CC(=O)Nc1cc(-c2cccc(NS(C)(=O)=O)c2)cn2c(-c3cccc(C(C)=O)c3)cnc12 the results were E-sel inducer 0.2, Yeast UUG start 22.0, DENV2 CPE rescue 32.9* and Cneo AK release -0.5.
COc1ccc(NC(=S)NC(=O)/C=C/c2cccs2)cc1 was read as DENV2 CPE rescue 18.1.
`NC(=O)c1ccccc1NC(=O)/C=C/c1ccc(Cl)cc1` gave Yeast UUG start 2.0 and Cneo AK release -2.7.
Screening O=C(/C=C/c1ccc(Cl)cc1)NC(=S)Nc1ccccc1C(=O)O returned DENV2 CPE rescue 23.4*.
COc1ccc(NC(=S)NC(=O)/C=C/c2ccccc2)cc1 was read as E-sel inducer -0.9, Yeast UUG start -20.9, DENV2 CPE rescue 37.8* and Cneo AK release 6.1.
`Cc1ccc(S(=O)(=O)N(C)C[C@@H]2OCCCC[C@@H](C)Oc3ccc(NC(=O)Nc4c(C)noc4C)cc3C(=O)N([C@@H](C)CO)C[C@H]2C)cc1` gave Yeast UUG start 4.6, DENV2 CPE rescue -3.8 and Cneo AK release -4.2.
For Cc1cnc(CNC(=O)C2CCC(=O)N(Cc3ccc(Cl)cc3)C2)[nH]1 (stereo not given) the results were E-sel inducer -0.9, Yeast UUG start -17.8, DENV2 CPE rescue 71.9* and Cneo AK release -1.0.

The closing 2 compounds of the part before open the next one:
`Cc1ccc(S(=O)(=O)N(C)C[C@@H]2OCCCC[C@@H](C)Oc3ccc(NC(=O)Nc4c(C)noc4C)cc3C(=O)N([C@@H](C)CO)C[C@H]2C)cc1` gave Yeast UUG start 4.6, DENV2 CPE rescue -3.8 and Cneo AK release -4.2.
For Cc1cnc(CNC(=O)C2CCC(=O)N(Cc3ccc(Cl)cc3)C2)[nH]1 (stereo not given) the results were E-sel inducer -0.9, Yeast UUG start -17.8, DENV2 CPE rescue 71.9* and Cneo AK release -1.0.
O=C(NCc1ccccn1)C1CCC(=O)N(Cc2ccc(Cl)cc2)C1 (stereo not given) was read as E-sel inducer 0.2, Yeast UUG start -18.9, DENV2 CPE rescue 10.0 and Cneo AK release -0.5.
Screening O=C(CNC(=O)c1ccccc1F)NCCN1C(=O)S/C(=C\c2ccccc2Cl)C1=O returned Yeast UUG start -8.1, DENV2 CPE rescue 81.0* and Cneo AK release -0.2.
`CN1C(=O)c2cc(NC(=O)c3ccc(F)c(F)c3)ccc2OC[C@H]2O[C@H](CC(=O)N3CCOCC3)CC[C@H]21` gave E-sel inducer 0.1, DENV2 CPE rescue 0.0 and Cneo AK release -2.4.
Screening CC(C)CCN1C(=O)c2cccc3c(N)ccc(c23)C1=O returned E-sel inducer 26.5*, Yeast UUG start -23.1, DENV2 CPE rescue 4.9 and Cneo AK release -0.6.
For Cc1c(N(C)C(=O)COc2ccc3ccccc3c2)c(=O)n(-c2ccccc2)n1C the results were E-sel inducer 41.9*, Yeast UUG start -12.5, DENV2 CPE rescue -1.6 and Cneo AK release 0.4.
For Cc1c(NC(=O)c2ccc(COc3ccc4ccccc4c3)o2)c(=O)n(-c2ccccc2)n1C the results were Yeast UUG start -9.9, DENV2 CPE rescue 3.4 and Cneo AK release -1.6.
For NC(=O)[C@@H]1CC2(CC(c3cccc(NC(=O)COc4ccc(Cl)cc4)c3)=NO2)CN1C(=O)c1ccccc1 (stereo not given in full) the results were E-sel inducer 0.2, Yeast UUG start -22.7, DENV2 CPE rescue 65.7* and Cneo AK release -9.2.
`C/C=C(\C)C(=O)N1CC2(CC(c3cccc(NC(=O)COc4ccc(Cl)cc4)c3)=NO2)C[C@@H]1C(N)=O` (stereo not given in full) gave E-sel inducer -0.1, Yeast UUG start -1.5, DENV2 CPE rescue -4.8 and Cneo AK release -3.5.
For COc1ccc(C(=O)N2CC3(CC(c4cccc(NC(=O)COc5ccc(Cl)cc5)c4)=NO3)C[C@@H]2C(N)=O)cc1 (stereo not given in full) the results were E-sel inducer 0.1, Yeast UUG start -11.7, DENV2 CPE rescue 0.2 and Cneo AK release -2.9.
C=C(C)C(=O)N1CC2(CC(c3cccc(NC(=O)COc4ccc(Cl)cc4)c3)=NO2)C[C@@H]1C(N)=O (stereo not given in full) was read as E-sel inducer -0.3, Yeast UUG start -14.1, DENV2 CPE rescue 34.0* and Cneo AK release -10.7.
Screening CC(C)C#Cc1ccc2c(c1)O[C@H](CN(C)C(=O)C1CC1)[C@@H](C)CN([C@H](C)CO)S2(=O)=O returned E-sel inducer -0.3, Yeast UUG start 5.5, DENV2 CPE rescue 4.4 and Cneo AK release -2.6.
Cc1noc(C)c1NC(=O)Nc1ccc2c(c1)CC(=O)N([C@H](C)CO)C[C@H](C)[C@H](CN(C)S(=O)(=O)c1ccc(Cl)cc1)O2 was read as E-sel inducer 0.3, Yeast UUG start 19.2, DENV2 CPE rescue 1.8 and Cneo AK release 28.7.

Molecules above with a furan ring, fused or not:
Cc1cc(C)c(C(=O)N(C)C2CCCN(Cc3ccccc3F)C2)o1 (stereo not given) was read as E-sel inducer -0.8, Yeast UUG start -15.0, DENV2 CPE rescue 37.0* and Cneo AK release -0.3.
For Cc1c(NC(=O)c2ccc(COc3ccc4ccccc4c3)o2)c(=O)n(-c2ccccc2)n1C the results were Yeast UUG start -9.9, DENV2 CPE rescue 3.4 and Cneo AK release -1.6.
